Data published in article PMC10113159, “Phase separation properties of RPA combine high-affinity ssDNA binding with dynamic condensate functions at telomeres” (Nature Structural & Molecular Biology, 2023).

Target: T1, purified trimeric human RPA complex (WT) (human, UniProt P27694 1-616; P15927 1-270; P35244 1-121)
T1 construct: RPA1 (RPA70), human, untagged, from p11d-tRPA(123); RPA2 (RPA32), human, untagged, from p11d-tRPA(123); also called tRPA; RPA WT; source: E. coli BL21, purified (HiTrap Blue, desalting, HiTrap Q); copies: + +
Experiment: partitioning of a labelled protein into preformed droplets (time-lapse microscopy); 1 µM Cy3-labelled protein added to preformed droplets of unlabelled trimeric RPA (7.5 µM, 5% PEG-8000, diluted Sørensen buffer pH 7.6, 150 mM KCl, 25 µM EDTA, 1 mM DTT, room temperature); Cy3 label alone as negative control
Conditions: both partners purified

B1: purified human RAD52 (natural protein, UniProt P43351 1-418, looked up)
chain: MSGTEEAILGGRDSHPAAGGGSVLCFGQCQYTAEEYQAIQKALRQRLGPEYISSRMAGGGQKVCYIEGHRVINLANEMFGYNGWAHSITQQNVDFVDLNNGKFYVGVCAFVRVQLKDGSYHEDVGYGVSEGLKSKALSLEKARKEAVTDGLKRALRSFGNALGNCILDKDYLRSLNKLPRQLPLEVDLTKAKRQDLEPSVEEARYNSCRPNMALGHPQLQQVTSPSRPSHAVIPADQDCSSRSLSSSAVESEATHQRKLRQKQLQQQFRERMEKQQVRVSTPSAEKSEAAPPAPPVTHSTPVTVSEPLLEKDFLAGVTQELIKTLEDNSEKWAVTPDAGDGVVKPSSRADPAQTSDTLALNNQMVTQNRTPHSVCHQKPQAKSGSWDLQTYSADQRTTGNWESHRKSQDMKKRKYDPS
modifications: Sulfo-Cyanine3 maleimide label (site not stated)
notes: RAD52, human, codon-optimized for E. coli, from pMALT-His-MBP-PP-hRAD52co; MBP-tag cleaved by PreScission protease; also called Cy3-labeled purified RAD52; source: E. coli, purified (amylose resin, HiTrap Heparin, NiNTA to remove uncleaved protein); not shown: His-tag, N-terminal, cleaved; MBP, N-terminal, cleaved
- binding result: binds
